Measurements from US20040248915A1, “Method for administration of troxacitabine” (priority 2003, published 2004).

Conditions: other treated groups (0.5, 5, 10 mg/ml), 6-day infusion

In the case of `Nc1ccn([C@@H]2CO[C@H](CO)O2)c(=O)n1` [troxacitabine, (−)-β-L-Dioxolane-Cytidine], the body weight gain was “comparable to those from the saline treated group”.
